27 compounds from patent US10144715B2, “Piperazine derivatives as liver X receptor modulators” (priority 2014, dated 2018) can be followed below.

Protein sequences, listed by entry. Tags and fused reporters are not part of them. Residues count along the entry.
UniProt P55055, 222-460: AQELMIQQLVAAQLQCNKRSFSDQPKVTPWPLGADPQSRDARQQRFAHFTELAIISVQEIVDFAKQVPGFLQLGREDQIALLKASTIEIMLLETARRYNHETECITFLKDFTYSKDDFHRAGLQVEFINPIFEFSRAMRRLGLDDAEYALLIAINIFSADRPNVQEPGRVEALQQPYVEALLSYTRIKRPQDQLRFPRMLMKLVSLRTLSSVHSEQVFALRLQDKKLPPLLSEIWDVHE

Read-outs that look alike come from different tables or passages of the source.

One experiment deals with LXR β LBD protein (Homo sapiens (Human), UniProt P55055). Kind of experiment: biochemical. It counts as biochemical.
The target of experiment [1] is Gal4 DNA binding domain fused to the LBD of LXRβ in HEK293 cells (Homo sapiens (Human), UniProt P55055). Kind of experiment: cell-based. Particulars: for Cell LXRβ efficacy: agonist mode.
The mark [2] stands for this setting: agonist mode, read-out: FRET LXRβ EC50.

As for `CS(=O)(=O)c1cccc(N2CCN(CC3CCN(CC(F)(F)F)CC3)[C@H](c3ccccc3)C2)c1` (single isomer, unassigned) [48-51], at LXR β LBD protein (Biological Test Example 3, agonist mode), the “FRET LXRβ efficacy” value worked out at 65%. The EC50 at LXR β LBD protein (Biological Test Example 3, agonist mode, read-out: FRET LXRβ EC50) is 4.85 µM; in experiment [1], > 20 µM.
For the compound `CC(C)(C)OC(=O)N1CCN(c2cccc(S(C)(=O)=O)c2)C[C@@H]1c1ccccc1` [1-6, tert-butyl (S)-4-(3-(methylsulfonyl)phenyl)-2-phenylpiperazine-1-carboxylate], the “FRET LXRβ efficacy” value on LXR β LBD protein (agonist mode) is on record as 25%. The EC50 at LXR β LBD protein (setting [2]) is 12.5 µM; in experiment [1], > 20 µM.
Turning to `CC(C)(C)OC(=O)N1CCN(c2cccc(S(C)(=O)=O)c2)CC1c1ccc(Br)cc1` (centres unmarked) [1-12, tert-butyl 2-(4-bromophenyl)-4-(3-(methylsulfonyl)phenyl)piperazine-1-carboxylate], the “FRET LXRβ efficacy” value on LXR β LBD protein (agonist mode) came to 72%. Besides, in experiment [1], the EC50 amounted to 0.948 µM and the “Cell LXRβ efficacy” value was found to be 37%.
`CC(C)[C@@H]1CN(c2ccc(C(N)=O)c(S(C)(=O)=O)c2)CCN1C(=O)OC(C)(C)C` [4-1, tert-butyl (R)-4-(4-carbamoyl-3-(methylsulfonyl)phenyl)-2-isopropylpiperazine-1-carboxylate]: at LXR β LBD protein (agonist mode), the “FRET LXRβ efficacy” value was found to be 90%. In addition, the concentration giving a half-maximal response (EC50) at LXR β LBD protein (setting [2]) is 2.41 µM. Besides, in experiment [1], the concentration for a half-maximal effect (EC50) was found to be 3.01 µM and the “Cell LXRβ efficacy” value was 20%.
For the compound `CC(C)OC(=O)N1CCN(c2cccc(S(C)(=O)=O)c2)CC1c1ccccc1` (centres unmarked) [5-8, isopropyl 4-(3-(methylsulfonyl)phenyl)-2-phenylpiperazine-1-carboxylate], on LXR β LBD protein (agonist mode), the “FRET LXRβ efficacy” value is given as 24%. In addition, the EC50 at LXR β LBD protein (setting [2]) is 0.732 µM; in experiment [1], > 20 µM.
`CC(C)(C)OC(=O)N1CCN(c2cccc(S(C)(=O)=O)c2)C[C@H]1C(C)(C)O` [6-1, tert-butyl (S)-2-(2-hydroxypropan-2-yl)-4-(3-(methylsulfonyl)phenyl)piperazine-1-carboxylate]: on LXR β LBD protein (agonist mode), the “FRET LXRβ efficacy” value is given as 78%. At LXR β LBD protein (setting [2]), the EC50 was found to be 2.65 µM. In experiment [1], the EC50 was 4.34 µM and the “Cell LXRβ efficacy” value is reported as 40%.
Consider `COC(=O)c1cnc(N2CCN(c3cccc(S(C)(=O)=O)c3)C[C@H]2C(C)C)nc1` [7-9, methyl (R)-2-(2-isopropyl-4-(3-(methylsulfonyl)phenyl)piperazin-1-yl)pyrimidine-5-carboxylate], for which the “FRET LXRβ efficacy” value on LXR β LBD protein (agonist mode) is recorded as 81%. The EC50 came out at 0.056 µM on LXR β LBD protein (setting [2]) and 0.64 µM in experiment [1]. For the same compound, the “Cell LXRβ efficacy” value in experiment [1] turned out to be 24%.
`CC(C)[C@@H]1CN(c2cccc(S(C)(=O)=O)c2)CCN1c1ncc(Br)cn1` [7-16, (R)-5-bromo-2-(2-isopropyl-4-(3-(methylsulfonyl)phenyl)piperazin-1-yl)pyrimidine]: at LXR β LBD protein (agonist mode), the “FRET LXRβ efficacy” value worked out at 92%. The EC50 on LXR β LBD protein (setting [2]) was found to be 0.016 µM; in experiment [1], 0.295 µM. Also, the “Cell LXRβ efficacy” value in experiment [1] turned out to be 62%.
The like results for `CC(C)[C@@H]1CN(c2ccc(C#N)c(S(C)(=O)=O)c2)CCN1c1ccc(C(F)(F)F)cn1` [7-37, (R)-4-(3-isopropyl-4-(5-(trifluoromethyl)pyridin-2-yl)piperazin-1-yl)-2-(methylsulfonyl)benzonitrile] were, in that order, 89%, 0.016 µM, 0.517 µM and 86%.
The like results for `CC(C)[C@@H]1CN(c2ccc(C#N)c(S(C)(=O)=O)c2)CCN1c1cccc(C(F)(F)F)n1` [7-38, (R)-4-(3-isopropyl-4-(6-(trifluoromethyl)pyridin-2-yl)piperazin-1-yl)-2-(methylsulfonyl)benzonitrile] were, in that order, 109%, 0.043 µM, 0.573 µM and 70%.
The like results for `CC(C)[C@@H]1CN(c2ccc(C#N)c(S(C)(=O)=O)c2)CCN1c1cc(C(F)(F)F)ccn1` [7-39, (R)-4-(3-isopropyl-4-(4-(trifluoromethyl)pyridin-2-yl)piperazin-1-yl)-2-(methylsulfonyl)benzonitrile] were, in that order, 115%, 0.025 µM, 0.544 µM and 64%.
As to `CS(=O)(=O)c1cccc(N2CCN(c3ccc(C(F)(F)F)cn3)[C@@H](c3ccccc3)C2)c1` [7-40, (S)-4-(3-(methylsulfonyl)phenyl)-2-phenyl-1-(5-(trifluoromethyl)pyridin-2-yl)piperazine], the “FRET LXRβ efficacy” value on LXR β LBD protein (agonist mode) amounted to 48%. The EC50 on LXR β LBD protein (setting [2]) was 4.36 µM; in experiment [1], > 20 µM.
Take `CS(=O)(=O)c1cccc(N2CCN(Cc3ccccc3)C(c3ccccc3)C2)c1` (centres unmarked) [46-4, 1-benzyl-4-(3-(methylsulfonyl)phenyl)-2-phenylpiperazine]: the EC50 at LXR β LBD protein (setting [2]) was > 50 µM; in experiment [1], > 20 µM.
In the same order, the values of `CS(=O)(=O)c1cccc(N2CCN(Cc3ccccc3C(F)(F)F)C(c3ccccc3)C2)c1` (centres unmarked) [46-12, 4-(3-(methylsulfonyl)phenyl)-2-phenyl-1-(2-(trifluoromethyl)benzyl)piperazine] are > 50 µM and > 20 µM.
In the case of `CS(=O)(=O)c1cccc(N2CCN(Cc3cccc(C(F)(F)F)c3)C(c3ccccc3)C2)c1` (centres unmarked) [46-13, 4-(3-(methylsulfonyl)phenyl)-2-phenyl-1-(3-(trifluoromethyl)benzyl)piperazine], at LXR β LBD protein (agonist mode), the “FRET LXRβ efficacy” value came to 21%. For the same compound, the values for the EC50 (at LXR β LBD protein (setting [2]); in experiment [1]) were 0.547 µM and > 20 µM, respectively.
On LXR β LBD protein, `CS(=O)(=O)c1cccc(N2CCN(Cc3ccc(C(F)(F)F)c(Cl)c3)[C@H](Cc3ccccc3)C2)c1` [46-33, (R)-2-benzyl-1-(3-chloro-4-(trifluoromethyl)benzyl)-4-(3-(methylsulfonyl)phenyl)piperazine] yielded an EC50 of 0.649 µM. Besides, the “FRET LXRβ efficacy” value on LXR β LBD protein (agonist mode) came out at 54%. Also, in experiment [1], the midpoint of the response, the EC50, lay at 1.68 µM and the “Cell LXRβ efficacy” value is 36%.
As for `CS(=O)(=O)c1cccc(N2CCN(Cc3cccnc3)C(c3ccccc3)C2)c1` (centres unmarked) [46-39, 4-(3-(methylsulfonyl)phenyl)-2-phenyl-1-(pyridin-3-ylmethyl)piperazine], the 50% effective concentration (EC50) at LXR β LBD protein (setting [2]) was > 50 µM; in experiment [1], > 20 µM.
For `Cc1ccc(CN2CCN(c3cccc(S(C)(=O)=O)c3)CC2c2ccccc2)cn1` (centres unmarked) [46-40, 1-((6-methylpyridin-3-yl)methyl)-4-(3-(methylsulfonyl)phenyl)-2-phenylpiperazine], the “FRET LXRβ efficacy” value on LXR β LBD protein (agonist mode) is on record as 23%. The concentration giving a half-maximal response (EC50) was 17.7 µM on LXR β LBD protein (setting [2]) and > 20 µM in experiment [1].
For `CS(=O)(=O)c1cccc(N2CCN(Cc3ccc(C(F)(F)F)nc3)C(c3ccc(F)cc3)C2)c1` (centres unmarked) [46-51, 2-(4-fluorophenyl)-4-(3-(methylsulfonyl)phenyl)-1-((6-(trifluoromethyl)pyridin-3-yl)methyl)piperazine], the “FRET LXRβ efficacy” value on LXR β LBD protein (agonist mode) was found to be 51%. For the same compound, the EC50 at LXR β LBD protein (setting [2]) amounted to 0.45 µM; in experiment [1] it was 1.31 µM. Further, in experiment [1], the “Cell LXRβ efficacy” value is 28%.
In the same order, the values of `CS(=O)(=O)c1cc(N2CCN(Cc3ccc(C(F)(F)F)nc3)C(c3ccccc3)C2)ccc1F` (centres unmarked) [46-52, 4-(4-fluoro-3-(methylsulfonyl)phenyl)-2-phenyl-1-((6-(trifluoromethyl)pyridin-3-yl)methyl)piperazine] are 42%, 1.23 µM, 2.11 µM and 20%.
The like results for `CS(=O)(=O)c1cc(N2CCN(Cc3ccc(C(F)(F)F)nc3)C(c3ccccc3)C2)ccc1C(N)=O` (centres unmarked) [46-58, 2-(methylsulfonyl)-4-(3-phenyl-4-((6-(trifluoromethyl)pyridin-3-yl)methyl)piperazin-1-yl)benzamide] were, in that order, 36%, 2.77 µM, 3.44 µM and 15%.
In the case of `CS(=O)(=O)c1cccc(N2CCN(Cc3ccc(C(F)(F)F)nc3)C(c3ccccc3Br)C2)c1` (centres unmarked) [46-60, 2-(2-bromophenyl)-4-(3-(methylsulfonyl)phenyl)-1-((6-(trifluoromethyl)pyridin-3-yl)methyl)piperazine], on LXR β LBD protein (agonist mode), the “FRET LXRβ efficacy” value is 74%. Further, in experiment [1], the EC50 amounted to 1.27 µM and the “Cell LXRβ efficacy” value is 25%.
Take `CS(=O)(=O)c1cccc(N2CCN(Cc3ccc(C(F)(F)F)nc3)C(c3ccc(Br)cc3)C2)c1` (centres unmarked) [46-61, 2-(4-bromophenyl)-4-(3-(methylsulfonyl)phenyl)-1-((6-(trifluoromethyl)pyridin-3-yl)methyl)piperazine]: on LXR β LBD protein (agonist mode), the “FRET LXRβ efficacy” value stood at 44%. Further, the EC50 in experiment [1] was > 20 µM.
As for `CS(=O)(=O)c1cc(N2CCN(Cc3ccc(C(F)(F)F)c(Cl)c3)C(c3ccccc3)C2)ccc1CO` (centres unmarked) [47-4, (4-(4-(3-chloro-4-(trifluoromethyl)benzyl)-3-phenylpiperazin-1-yl)-2-(methylsulfonyl)phenyl)methanol], the “FRET LXRβ efficacy” value on LXR β LBD protein (agonist mode) is listed as 91%. Also, the 50% effective concentration (EC50) on LXR β LBD protein (setting [2]) came out at 0.022 µM. Further, in experiment [1], the EC50 worked out at 0.515 µM and the “Cell LXRβ efficacy” value turned out to be 98%.
Compound `CC(C)C1CN(c2ccc(C#N)c(S(C)(=O)=O)c2)CCN1CC1CCC(C(F)(F)F)CC1` [50-2, 4-((S)-3-isopropyl-4-(((1r,4S)-4-(trifluoromethyl)cyclohexyl)methyl)piperazin-1-yl)-2-(methylsulfonyl)benzonitrile] gave an EC50 in experiment [1] of 0.542 µM.
Take `CC(C)[C@@H]1CN(c2ccc(C#N)c(S(C)(=O)=O)c2)CCN1C(=O)OC(C)(C)C` [Cpd No 3-1, tert-butyl (R)-4-(4-cyano-3-(methylsulfonyl)phenyl)-2-isopropylpiperazine-1-carboxylate]: the “FRET LXRβ efficacy” value at LXR β LBD protein (agonist mode) worked out at 75%. In addition, the EC50 was determined as 0.618 µM at LXR β LBD protein (setting [2]) and 2.31 µM in experiment [1]. Further, in experiment [1], the “Cell LXRβ efficacy” value was determined as 20%.
With “benzyl 4-(3-(methylsulfonyl)phenyl)-2-phenylpiperazine-1-carboxylate [1-14]”, on LXR β LBD protein (setting [2]), the EC50 worked out at 0.192 µM.

In general, EC50 refers to the concentration needed to bring the measured effect to its halfway point.
